Reference: US12528869B2, “Treatment of non-small cell lung cancer with EGFR mutations” (Janssen Biotech, Inc., priority 2020, dated 2026)

Test system: EGFR and EGFR downstream signaling in Ba/F3 cells overexpressing D770delinsGY and H773_V774insH
Assay: Immunoblot analysis in Ba/F3 cells
Assay type: cell-based
From the text: Five distinct Exon20ins were introduced (FIG. 1B), all of which have been observed in NSCLC patients (V769_D770insASV, D770delinsGY, H773_V774insH, Y764_V765insHH and D770_N771insSVD) (20,21).

With `COc1cc2ncnc(Nc3ccc(F)c(Cl)c3)c2cc1OCCCN1CCOCC1` [gefitinib] the “downstream EGFR signaling pathway components” value was “not inhibited” and the p-EGFR was “reduced p-EGFR”.
